# Data published in publication PMC5864730, “Peptide ion channel toxins from the bootlace worm, the longest animal on Earth” (Scientific Reports, 2018).
# Chains of the proteins cited; added tags and fusions are not shown.
# UniProt Q9WTU3, whole entry: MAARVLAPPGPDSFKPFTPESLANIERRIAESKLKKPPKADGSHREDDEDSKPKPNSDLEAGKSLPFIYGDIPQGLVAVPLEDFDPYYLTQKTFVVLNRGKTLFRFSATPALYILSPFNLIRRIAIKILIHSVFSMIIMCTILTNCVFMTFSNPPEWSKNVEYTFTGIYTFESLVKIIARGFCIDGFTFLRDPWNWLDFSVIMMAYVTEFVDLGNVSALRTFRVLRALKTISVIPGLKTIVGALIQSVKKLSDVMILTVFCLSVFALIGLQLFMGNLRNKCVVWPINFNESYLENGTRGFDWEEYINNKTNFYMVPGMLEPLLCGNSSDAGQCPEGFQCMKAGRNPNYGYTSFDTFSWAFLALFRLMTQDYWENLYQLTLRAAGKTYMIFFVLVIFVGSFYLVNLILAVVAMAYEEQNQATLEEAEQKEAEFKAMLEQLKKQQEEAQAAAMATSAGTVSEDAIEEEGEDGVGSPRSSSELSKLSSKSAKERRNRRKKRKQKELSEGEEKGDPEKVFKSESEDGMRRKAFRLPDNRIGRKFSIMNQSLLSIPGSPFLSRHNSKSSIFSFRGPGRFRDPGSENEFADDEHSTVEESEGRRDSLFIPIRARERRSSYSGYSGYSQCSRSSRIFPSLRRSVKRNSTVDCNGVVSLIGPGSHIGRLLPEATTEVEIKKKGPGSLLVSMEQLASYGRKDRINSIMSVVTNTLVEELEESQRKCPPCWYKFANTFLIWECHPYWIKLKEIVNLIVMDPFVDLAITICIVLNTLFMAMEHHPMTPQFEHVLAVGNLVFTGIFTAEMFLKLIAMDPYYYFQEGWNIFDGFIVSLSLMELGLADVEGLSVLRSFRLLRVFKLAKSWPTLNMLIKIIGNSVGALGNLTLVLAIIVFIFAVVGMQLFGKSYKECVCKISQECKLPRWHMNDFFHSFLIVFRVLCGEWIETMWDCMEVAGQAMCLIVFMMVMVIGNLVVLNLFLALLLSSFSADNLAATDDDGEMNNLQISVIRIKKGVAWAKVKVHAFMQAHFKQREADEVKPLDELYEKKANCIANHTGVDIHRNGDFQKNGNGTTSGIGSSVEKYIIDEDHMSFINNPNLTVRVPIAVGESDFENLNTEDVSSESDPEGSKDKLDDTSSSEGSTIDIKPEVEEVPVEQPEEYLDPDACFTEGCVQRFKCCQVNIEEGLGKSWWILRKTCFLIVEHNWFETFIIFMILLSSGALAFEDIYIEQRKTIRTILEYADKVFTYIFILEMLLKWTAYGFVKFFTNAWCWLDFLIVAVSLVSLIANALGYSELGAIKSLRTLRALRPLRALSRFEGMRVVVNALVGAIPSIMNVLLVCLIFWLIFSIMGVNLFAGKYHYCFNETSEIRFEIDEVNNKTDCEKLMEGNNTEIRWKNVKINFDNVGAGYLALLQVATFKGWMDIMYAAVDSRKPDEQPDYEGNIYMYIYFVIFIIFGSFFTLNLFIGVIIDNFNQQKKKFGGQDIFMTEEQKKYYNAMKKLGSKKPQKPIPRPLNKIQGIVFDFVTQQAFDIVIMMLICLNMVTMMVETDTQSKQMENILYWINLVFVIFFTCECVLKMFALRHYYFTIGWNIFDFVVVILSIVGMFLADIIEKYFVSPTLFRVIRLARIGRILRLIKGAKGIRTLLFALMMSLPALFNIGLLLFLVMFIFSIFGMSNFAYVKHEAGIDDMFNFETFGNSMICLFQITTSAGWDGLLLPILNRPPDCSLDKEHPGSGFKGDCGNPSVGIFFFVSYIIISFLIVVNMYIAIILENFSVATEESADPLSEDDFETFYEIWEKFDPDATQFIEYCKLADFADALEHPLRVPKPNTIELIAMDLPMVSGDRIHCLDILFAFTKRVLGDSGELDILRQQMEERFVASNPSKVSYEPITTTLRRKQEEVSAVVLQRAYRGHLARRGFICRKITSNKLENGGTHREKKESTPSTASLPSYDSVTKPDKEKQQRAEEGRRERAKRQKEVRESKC
# Target: T1, NaV1.6 (Mus musculus, UniProt Q9WTU3)
# T1 construct: expressed in transfected cells; host or cells: Xenopus laevis oocytes (cRNA injection)
# Assay: Two-electrode voltage clamp on NaV1.6 in Xenopus laevis oocytes
# Format: biochemical, human
# Details: 18–22 °C, ND96, mean ± S.E.M., n ≥ 3
# Description: Complementary DNA encoding the NaV-channels was subcloned into the corresponding vector: the α-subunits rNaV1.1/pLCT1(NotI), rNaV1.4/pUI-2(NotI), hNaV1.5/pcDNA3.1(XbaI), mNaV1.6/pLCT(NotI), cockroach Blattella germanica BgNaV1.1/pGH19(NotI), Drosophila melanogaster DmNaV1, Varroa destructor VdNaV1, and the corresponding β-subunits rβ1/pSP64T(EcoRI) and Drosophila melanogaster TipE/pGH19(NotI). The linearized plasmids—respective restriction enzymes are indicated in parentheses—were transcribed using the T7 (for rNaV1.1, rNaV1.4, mNaV1.6, BgNaV1.1, TipE) or the SP6 (for hNaV1.5 and rβ1) mMESSAGE-mMACHINE transcription kit (Ambion, Austin, TX). The harvesting of stage V-VI oocytes from anaesthetized female Xenopus laevis frogs was described previously. Oocytes were injected with 50–70 nl of cRNA at a concentration of 1–3 ng/nl using a micro-injector (Drummond Scientific, Broomall, PA). […]
# Whole-cell currents from oocytes were recorded at room temperature (18–22 °C) by the two-electrode voltage clamp technique using a GeneClamp 500 amplifier (Molecular Devices, Sunnyvale, CA) controlled by a pClamp data acquisition system (Molecular Devices). […] All data was analyzed using pClamp Clampfit 10.0 (Molecular Devices®, Downingtown, PA) and Origin 7.5 software (Originlab®, Northampton, MA) and is presented as mean ± standard error (S.E.M) of at least 3 independent experiments (n ≥ 3).
compound,measurement,value
CC[C@H](C)[C@@H]1NC(=O)[C@@H](NC(=O)CN)CSSC[C@@H]2NC(=O)[C@@H]3CSSC[C@@H](C(=O)N[C@@H](CC(N)=O)C(=O)N4C[C@H](O)C[C@H]4C(=O)N4C[C@H](O)C[C@H]4C(=O)N[C@@H](CC(N)=O)C(=O)N[C@@H](CCC(N)=O)C(=O)O)NC(=O)[C@H](CCCCN)NC(=O)[C@H](Cc4ccccc4)NC(=O)[C@H](CC(N)=O)NC(=O)[C@H](Cc4c[nH]c5ccccc45)NC(=O)CNC(=O)[C@H](CSSC[C@H](NC(=O)[C@H](Cc4ccccc4)NC(=O)[C@H](CO)NC(=O)CNC(=O)[C@H]([C@@H](C)O)NC(=O)[C@H](C)NC1=O)C(=O)N[C@@H]([C@@H](C)O)C(=O)N[C@@H](CC(C)C)C(=O)N[C@@H](CO)C(=O)N[C@@H](CCCCN)C(=O)NCC(=O)N3)NC(=O)[C@H](CC(N)=O)NC(=O)[C@H](CCCCN)NC(=O)[C@H]([C@@H](C)O)NC2=O [α-1],EC50,800 ± 100 nM
